The source of these data is PMC5859971 (Genes & Development, 2018).

The test system of one assay is HCT116-PHF5A^WT. Nature of the assay: CellTiter-Glo viability assay, HCT116-PHF5A^WT. Format: cell-based, human. The procedure: To further validate the pose of the compound, we analyzed the activity of several related chemical probes using the SPA with the purified protein complex ([Teng et al. 2017]). The SPA is formatted as a competition assay in which the purified protein complex is captured on a bead containing scintillant, incubated with test compounds over a dose response, and then competed off with a fixed concentration of ^3H-Plad compound. IC50 curves are then measured from the resulting light emitted from the bead (Table 1; Supplemental Fig. S4). In addition, we tested the probes in viability assays in two engineered cell lines: HCT116-PHF5A^WT and the sensitization line HCT116-PHF5A^R38C (Table 1; Supplemental Fig. S5). […]
Parental HCT116 cells were obtained from American Type Culture Collection and cultured in RPMI 1640 medium supplemented with 10% fetal bovine serum. […] Dose response was measured in 11-point serial dilutions with a top dose of 10 µM. […] Seventy-two hours after dosing, CellTiter-Glo reagent was added, incubated, and assayed on an EnVision multilabel reader (PerkinElmer). Luminescence values from each treatment were normalized to the average value of the respective DMSO control. The dose response curve plots were generated in GraphPad Prism, and GI50 values were calculated from nonlinear regression analysis. […]

Assay [1] deals with splicing of Ad2.2 pre-mRNA substrate. In words: In vitro splicing (IVS) assay, Ad2.2 substrate, HeLa S3 nuclear extracts, RT-qPCR. The format is biochemical, human. The conditions noted are these: Ad2.1 and Ad2.2 substrates compared. From the text: A substrate competitive mechanism of action (MOA) would predict that weaker pre-mRNA substrates would be easier to inhibit than stronger substrates. To date, it has not been possible to evaluate substrate competition using traditional steady-state conditions because splicing reactions are thought to be single-turnover events in vitro, and therefore it is not possible to measure a KM for the pre-mRNA. […] Specifically, we engineered the strong in vitro splicing substrate Ad2.1 by enhancing the U2 snRNP base-pairing around the BPA found in the Ad2 substrate. We then engineered a weaker substrate, Ad2.2, by adding a decoy BPS lacking an extrahelical adenosine (Ad2.2) (Fig. 5A; Supplemental Vector NTI files; [Corrionero et al. 2011]). […] We then evaluated E7107 and several chemical probes to better understand their mechanism.
Figure 5. […] (A) Base-pairing logic for IVS substrates. (BPRS) Branch point recognition sequence in U2 snRNA; (BPS) the BPS in the pre-mRNA. The Ad2 gene BPS sequence (UACUUAU) was modified (UACUAAU) to strengthen the U2 base-pairing interactions flanking the BPA, leading to the Ad2.1 substrate (BPA in red). The Ad2.2 sequence has the same BPS as Ad2 but also contains a 5′ decoy BPS sequence (lacking an extrahelical adenine) that can base-pair with the BPRS. […]

Consider `CCC(O)C(C)C1OC1CC(C)(O)C=CC=C(C)C1OC(=O)CC(O)CCC(C)(O)C(OC(C)=O)C=CC1C` (centres unmarked) [Plad D], for which the “loss of potency relative to E7107 in viability assays” value with HCT116-PHF5A^WT was around 10 fold. In assay [1], the “inhibition of strong and weak IVS substrates” value is “inhibit both the strong and weak substrates equally well”.
